The values that follow come from patent US7511133B2 (dated 2009).

Sequences of proteins named here, by UniProt entry; tags and fusion partners are left off.
UniProt P30542, whole entry: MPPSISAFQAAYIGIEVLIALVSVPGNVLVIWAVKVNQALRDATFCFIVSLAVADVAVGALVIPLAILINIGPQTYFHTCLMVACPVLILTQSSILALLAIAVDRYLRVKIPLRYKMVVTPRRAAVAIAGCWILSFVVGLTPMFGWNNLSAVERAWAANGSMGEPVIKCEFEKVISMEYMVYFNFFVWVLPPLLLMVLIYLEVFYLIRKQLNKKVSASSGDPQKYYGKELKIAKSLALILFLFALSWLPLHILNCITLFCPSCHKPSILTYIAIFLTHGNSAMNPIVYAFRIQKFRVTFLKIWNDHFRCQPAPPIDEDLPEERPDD
UniProt P0DMS8, whole entry: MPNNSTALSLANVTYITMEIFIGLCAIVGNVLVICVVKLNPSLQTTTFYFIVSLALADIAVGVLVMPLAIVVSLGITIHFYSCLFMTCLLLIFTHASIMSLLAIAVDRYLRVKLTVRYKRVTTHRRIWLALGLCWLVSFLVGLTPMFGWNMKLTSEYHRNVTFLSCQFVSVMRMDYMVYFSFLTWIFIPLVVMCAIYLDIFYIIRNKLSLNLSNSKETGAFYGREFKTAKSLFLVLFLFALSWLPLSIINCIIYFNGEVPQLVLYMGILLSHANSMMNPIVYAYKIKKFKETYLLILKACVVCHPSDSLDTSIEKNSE

The target in one assay is human A1 receptors (Homo sapiens, UniProt P30542). In words: [^3H] DPCPX binding to human A1 receptors expressed in CHO cells (antagonist radioligand).
Another assay addresses human A3 receptors (Homo sapiens, UniProt P0DMS8). In words: [^3H] MRE3008F20 binding to human A3 receptors expressed in CHO cells (antagonist radioligand).
Assay [1] deals with human A1 adenosine receptors (Homo sapiens, UniProt P30542). Briefly: Displacement of [^3H]CHA binding, human A1 adenosine receptors in CHO cells (agonist radioligand).
Assay [2] has as its target human A3 adenosine receptors (Homo sapiens, UniProt P0DMS8).

Broadly, the Ki is the dissociation constant of the complex between target and ligand, obtained from inhibition or displacement. `CCNC(=O)[C@H]1O[C@@H](n2cnc3c(NC(=O)Nc4ccc(S(=O)(=O)N5CCCCC5)cc4)ncnc32)[C@H](O)[C@@H]1O` [Compound 83, 1-Deoxy-1-[6-[[[[4-[(piperidin-1-yl)sulfonyl]phenyl]amino]carbonyl]amino]-9H-purin-9-yl]-N-ethyl-β-D-ribofuranuronamide]: the inhibition constant Ki on human A1 receptors was greater than 1000 nM; at human A3 receptors, 137 nM; in assay [1], 750 nM; in assay [2], 17 nM.
With `CCNC(=O)[C@H]1O[C@@H](n2cnc3c(NC(=O)Nc4ccc(S(=O)(=O)NCc5ccccc5)cc4)ncnc32)[C@H](O)[C@@H]1O` [Compound 86, 1-Deoxy-1-[6-[[[[4-[N-(benzyl)aminosulfonyl]phenyl]amino]-carbonyl]amino]-9H-purin-9-yl]-N-ethyl-β-D-ribofuranuronamide], the Ki on human A3 receptors was found to be 303 nM; in assay [2] it was 24 nM.
As to `CCNC(=O)[C@H]1O[C@@H](n2cnc3c(NC(=O)Nc4ccc(S(=O)(=O)Nc5ccc(OC)cc5)cc4)ncnc32)[C@H](O)[C@@H]1O` [Compound 88, 1-Deoxy-1-[6-[[[[4-[N-(4-methoxyphenyl)aminosulfonyl]phenyl]-amino]carbo-nyl]amino]-9H-purin-9-yl]-N-ethyl-β-D-ribofuranuronamide], the inhibitory constant (Ki) on human A3 receptors was found to be 573 nM; in assay [2] it was 23 nM.
On to `CCNC(=O)[C@H]1O[C@@H](n2cnc3c(NC(=O)Nc4ccc(S(=O)(=O)N5CCCC5)cc4)ncnc32)[C@H](O)[C@@H]1O` [Compound 90, 1-Deoxy-1-[6-[[[[4-[(pyrrolidin-1-yl)sulfonyl]phenyl]amino]carbonyl]amino]-9H-purin-9-yl]-N-ethyl-β-D-ribofuranuronamide], for which the Ki on human A1 receptors was greater than 1000 nM; in assay [1], 700 nM.
Take `CCNC(=O)[C@H]1O[C@@H](n2cnc3c(NC(=O)Nc4ccc(S(=O)(=O)NC5CCCCC5)cc4)ncnc32)[C@H](O)[C@@H]1O` [Compound 94, 1-Deoxy-1-[6-[[[[4-[N-(cyclohexyl)aminosulfonyl]phenyl]-amino]carbonyl]amino]-9H-purin-9-yl]-N-ethyl-β-D-ribofuranuronamide]: the inhibition constant Ki at human A3 receptors came out at 130 nM; in assay [2], 23 nM.
As to `C=CCN(C)S(=O)(=O)c1ccc(NC(=O)Nc2ncnc3c2ncn3[C@@H]2O[C@H](C(=O)NCC)[C@@H](O)[C@H]2O)cc1` [Compound 96, 1-Deoxy-1-[6-[[[[4-[N-(allyl)-N-(methyl)amino-sulfonyl]phenyl]amino]carbonyl]amino]-9H-purin-9-yl]-N-ethyl-β-D-ribofuranuronamide], the results for the inhibitory constant (Ki) (on human A1 receptors; in assay [1]) were greater than 1000 nM and 206 nM, respectively.
`CCNC(=O)[C@H]1O[C@@H](n2cnc3c(NC(=O)Nc4ccc(S(=O)(=O)N(C)C(C)C)cc4)ncnc32)C(O)C1O` (stereo partly drawn) [Compound 97, 1-Deoxy-1-[6-[[[[4-[N-(1-methylethyl)-N-(methyl)-aminosulfonyl]phenyl]amino]carbo-nyl]amino]-9H-purin-9-yl]-N-ethyl-β-D-ribofuranuronamide] had a Ki in assay [1] of 325 nM.
The compound `CCNC(=O)[C@H]1O[C@@H](n2cnc3c(NC(=O)Nc4ccc(S(=O)(=O)N(C)C)cc4)ncnc32)C(O)C1O` (stereo partly drawn) [Compound 98, 1-Deoxy-1-[6-[[[[4-[N,N-(dimethyl)amino-sulfonyl]phenyl]amino]carbonyl]amino]-9H-purin-9-yl]-N-ethyl-β-D-ribofuranuronamide] gave an inhibition constant (Ki) in assay [2] of 12 nM.
As for `CCNC(=O)[C@H]1O[C@@H](n2cnc3c(NC(=O)Nc4ccc(S(=O)(=O)N(CC)CC)cc4)ncnc32)[C@H](O)[C@@H]1O` [Compound 100, 1-Deoxy-1-[6-[[[[4-[N,N-bis(ethyl)amino-sulfonyl]phenyl]amino]carbonyl]amino]-9H-purin-9-yl]-N-ethyl-β-D-ribofuranuronamide], the Ki in assay [1] came out at 350 nM; in assay [2] it was 9 nM.
